Data from article PMC8274062, “Promising Non-cytotoxic Monosubstituted Chalcones to Target Monoamine Oxidase-B” (ACS Medicinal Chemistry Letters, 2021).

By UniProt entry, the sequences of proteins in these tests, tags left out.
UniProt P27338, whole entry: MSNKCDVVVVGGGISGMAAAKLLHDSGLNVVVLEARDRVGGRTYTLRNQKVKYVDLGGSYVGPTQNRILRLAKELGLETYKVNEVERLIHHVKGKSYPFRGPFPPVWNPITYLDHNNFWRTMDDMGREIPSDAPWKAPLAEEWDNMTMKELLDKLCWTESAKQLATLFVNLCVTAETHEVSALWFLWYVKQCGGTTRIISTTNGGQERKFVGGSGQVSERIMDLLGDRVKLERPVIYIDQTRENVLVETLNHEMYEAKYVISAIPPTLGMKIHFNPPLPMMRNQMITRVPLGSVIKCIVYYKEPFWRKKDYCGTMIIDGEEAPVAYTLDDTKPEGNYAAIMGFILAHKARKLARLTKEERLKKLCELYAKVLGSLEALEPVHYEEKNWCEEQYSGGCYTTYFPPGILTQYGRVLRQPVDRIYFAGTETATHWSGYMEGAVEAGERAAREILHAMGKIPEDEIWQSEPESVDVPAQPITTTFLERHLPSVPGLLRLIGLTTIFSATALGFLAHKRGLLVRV

Target: human recombinant MAO-B (Homo sapiens, UniProt P27338)
Assay: Monoamine oxidase inhibition assay (Amplex Red, kynuramine), MAO-B
Conditions: S.I. = Ki(MAO-A)/Ki(MAO-B)

S.I. (selectivity index): 920
SMILES: O=C(/C=C/c1ccccc1)c1cccc(C(F)(F)F)c1 [Compound 13]
